Sequences of proteins named here, by UniProt entry; tags and fusion partners are left off. A change or cut given only in a name is not applied to a line headed by its entry.
UniProt P26664: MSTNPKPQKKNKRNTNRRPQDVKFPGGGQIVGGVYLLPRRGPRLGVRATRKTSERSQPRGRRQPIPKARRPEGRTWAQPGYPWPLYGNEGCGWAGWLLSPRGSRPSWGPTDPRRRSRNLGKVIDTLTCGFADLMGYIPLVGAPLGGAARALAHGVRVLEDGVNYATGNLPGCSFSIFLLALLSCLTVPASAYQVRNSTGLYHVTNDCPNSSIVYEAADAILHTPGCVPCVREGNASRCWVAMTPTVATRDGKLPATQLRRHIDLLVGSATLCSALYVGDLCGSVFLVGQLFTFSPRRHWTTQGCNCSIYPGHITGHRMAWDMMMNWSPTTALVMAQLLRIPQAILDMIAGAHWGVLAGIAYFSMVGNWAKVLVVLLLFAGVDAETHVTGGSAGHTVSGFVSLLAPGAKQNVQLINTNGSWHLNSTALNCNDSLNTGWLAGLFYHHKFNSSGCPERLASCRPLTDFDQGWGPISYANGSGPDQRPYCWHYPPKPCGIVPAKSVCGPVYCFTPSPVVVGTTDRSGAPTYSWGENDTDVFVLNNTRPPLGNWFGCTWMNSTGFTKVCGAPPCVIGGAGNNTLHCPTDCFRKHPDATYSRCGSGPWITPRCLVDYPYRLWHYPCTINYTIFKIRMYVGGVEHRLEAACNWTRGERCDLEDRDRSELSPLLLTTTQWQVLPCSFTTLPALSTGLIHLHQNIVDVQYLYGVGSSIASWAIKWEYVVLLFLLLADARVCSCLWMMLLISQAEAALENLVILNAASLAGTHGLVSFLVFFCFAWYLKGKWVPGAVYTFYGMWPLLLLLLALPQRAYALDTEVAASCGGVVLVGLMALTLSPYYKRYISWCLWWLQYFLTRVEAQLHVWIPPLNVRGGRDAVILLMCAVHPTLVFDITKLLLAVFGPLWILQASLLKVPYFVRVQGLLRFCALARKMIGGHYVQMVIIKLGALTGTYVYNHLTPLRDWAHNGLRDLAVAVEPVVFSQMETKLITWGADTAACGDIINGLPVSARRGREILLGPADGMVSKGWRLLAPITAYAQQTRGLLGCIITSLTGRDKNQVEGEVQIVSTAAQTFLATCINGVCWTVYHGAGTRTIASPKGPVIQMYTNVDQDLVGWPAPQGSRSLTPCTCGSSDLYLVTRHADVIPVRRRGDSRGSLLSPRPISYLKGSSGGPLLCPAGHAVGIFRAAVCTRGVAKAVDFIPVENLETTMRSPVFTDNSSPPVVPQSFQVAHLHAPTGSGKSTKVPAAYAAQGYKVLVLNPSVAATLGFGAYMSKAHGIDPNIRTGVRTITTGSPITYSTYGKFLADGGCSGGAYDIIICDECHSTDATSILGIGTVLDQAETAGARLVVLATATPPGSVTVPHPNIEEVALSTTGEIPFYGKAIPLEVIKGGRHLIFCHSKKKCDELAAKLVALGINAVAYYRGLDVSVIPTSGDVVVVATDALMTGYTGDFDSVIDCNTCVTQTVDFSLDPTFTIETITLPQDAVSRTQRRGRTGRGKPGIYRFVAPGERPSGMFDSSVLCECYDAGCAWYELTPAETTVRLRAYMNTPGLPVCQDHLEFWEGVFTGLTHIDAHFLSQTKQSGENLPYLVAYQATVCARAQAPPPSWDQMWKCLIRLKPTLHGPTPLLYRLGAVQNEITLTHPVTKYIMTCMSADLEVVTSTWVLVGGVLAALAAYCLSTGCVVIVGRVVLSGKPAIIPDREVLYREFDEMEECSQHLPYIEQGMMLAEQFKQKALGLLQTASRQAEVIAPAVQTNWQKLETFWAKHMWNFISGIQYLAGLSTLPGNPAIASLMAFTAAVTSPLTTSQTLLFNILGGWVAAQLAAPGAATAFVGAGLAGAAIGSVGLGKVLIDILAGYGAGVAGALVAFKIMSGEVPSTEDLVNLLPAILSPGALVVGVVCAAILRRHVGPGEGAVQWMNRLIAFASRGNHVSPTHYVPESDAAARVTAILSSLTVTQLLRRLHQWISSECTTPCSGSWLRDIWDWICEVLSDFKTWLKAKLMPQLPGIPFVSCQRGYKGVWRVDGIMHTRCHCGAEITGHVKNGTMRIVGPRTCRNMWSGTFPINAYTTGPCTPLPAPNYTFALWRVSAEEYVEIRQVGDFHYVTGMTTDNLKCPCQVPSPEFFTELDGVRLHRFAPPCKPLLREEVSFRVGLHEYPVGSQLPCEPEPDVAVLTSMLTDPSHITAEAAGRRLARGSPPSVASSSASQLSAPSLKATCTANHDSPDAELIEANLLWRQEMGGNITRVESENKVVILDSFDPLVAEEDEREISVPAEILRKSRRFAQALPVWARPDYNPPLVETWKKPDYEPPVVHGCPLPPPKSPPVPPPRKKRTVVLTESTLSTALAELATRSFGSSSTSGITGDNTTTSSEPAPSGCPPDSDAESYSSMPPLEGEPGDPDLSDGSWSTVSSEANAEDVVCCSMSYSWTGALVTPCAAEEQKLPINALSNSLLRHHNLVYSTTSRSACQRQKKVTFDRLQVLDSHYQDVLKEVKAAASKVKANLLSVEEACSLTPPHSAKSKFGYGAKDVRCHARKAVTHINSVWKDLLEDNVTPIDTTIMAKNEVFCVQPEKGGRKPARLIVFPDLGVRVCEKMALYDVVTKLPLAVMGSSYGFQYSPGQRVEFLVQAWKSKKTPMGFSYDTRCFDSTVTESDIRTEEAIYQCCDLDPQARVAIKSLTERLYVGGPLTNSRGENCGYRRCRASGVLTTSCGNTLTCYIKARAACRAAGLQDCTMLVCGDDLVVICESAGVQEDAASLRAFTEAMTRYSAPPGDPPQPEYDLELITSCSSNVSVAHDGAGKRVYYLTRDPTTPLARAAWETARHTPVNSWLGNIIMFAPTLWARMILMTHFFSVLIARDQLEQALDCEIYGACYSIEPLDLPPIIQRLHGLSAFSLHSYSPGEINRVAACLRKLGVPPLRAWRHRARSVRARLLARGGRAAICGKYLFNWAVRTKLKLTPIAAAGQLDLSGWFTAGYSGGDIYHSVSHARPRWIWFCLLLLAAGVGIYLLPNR

In US8613914B2, “Peptidomimetic sulfamide compounds and antiviral uses thereof” (Novartis AG, priority 2009, dated 2013):

What follows are molecules tested against HCV NS3-4A serine protease (full-length NS3-4A protein) (Hepatitis C virus genotype 1a (isolate 1) (HCV), UniProt P26664) (assay: HCV NS3-4A protease assay). Settings: strain HCV-1, fluorogenic peptide substrate, read-out: Protease assay Ex. 12 IC50.
Type: biochemical, HCV genotype 1a
Protocol: The inhibitory activity of certain compounds of Table A against HCV NS3-4A serine protease is determined in a homogenous assay using the full-length NS3-4A protein (genotype 1a, strain HCV-1) and a commercially available internally-quenched fluorogenic peptide substrate as described by Taliani, M., et al. 1996 Anal. Biochem. 240:60-67, which is incorporated by reference in its entirety.

Row | SMILES | IC50 [nM]
1 | CC[C@@H]1C[C@]1(NC(=O)[C@@H]1C[C@@]2(CN1C(=O)[C@@H](NC(=O)[C@@H](NC(=O)[C@@H]1CCCN1CC)C1CCCCC1)C(C)(C)C)C(C)(C)C21CCC1)C(=O)NS(=O)(=O)N(CC)CC [Compound 100, (5R,8S)-7-[(2S)-2-{[(2S)-2-cyclohexyl-2-({[(2S)-1-ethylpyrrolidin-2-yl]carbonyl}amino)acetyl]amino}-3,3-dimethylbutanoyl]-N-[(1R,2R)-1-{[(diethylamino)sulfonyl]carbamoyl}-2-ethylcyclopropyl]-10,10-dimethyl-7-azadispiro[3.0.4.1]decane-8-carboxamide] | 10
2 | C=C[C@@H]1C[C@]1(NC(=O)[C@@H]1C[C@@]2(CN1C(=O)[C@@H](NC(=O)[C@@H](NC(=O)[C@@H]1CCCN1CC)C1CCCCC1)C(C)(C)C)C(C)(C)C21CCC1)C(=O)NS(=O)(=O)N(C)CC [Compound 101, (5R,8S)-7-[(2S)-2-{[(2S)-2-cyclohexyl-2-({[(2S)-1-ethylpyrrolidin-2-yl]carbonyl}amino)acetyl]amino}-3,3-dimethylbutanoyl]-N-[(1R,2S)-1-({[ethyl(methyl)amino]sulfonyl}carbamoyl)-2-vinylcyclopropyl]-10,10-dimethyl-7-azadispiro[3.0.4.1]decane-8-carboxamide] | 2.5
3 | [2H]C([2H])([2H])C([2H])(N1CCC[C@H]1C(=O)NC(C(=O)N[C@H](C(=O)N1C[C@]2(C[C@H]1C(=O)N[C@]1(C(=O)NS(=O)(=O)N3CCCC3)C[C@H]1C=C)C(C)(C)C21CCC1)C(C)(C)C)C1CCCCC1)C([2H])([2H])[2H] (stereo partly drawn) [Compound 140, (5R,8S)-7-[(2S)-2-{[(2S)-2-cyclohexyl-2-({[(2S)-1-d7-isopropylpyrrolidin-2-yl]carbonyl}amino)acetyl]amino}-3,3-dimethylbutanoyl]-10,10-dimethyl-N-{(1R,2S)-1-[(pyrrolidin-1-ylsulfonyl)carbamoyl]-2-vinylcyclopropyl}-7-azadispiro[3.0.4.1]decane-8-carboxamide-d7] | 2.5
4 | C=C[C@@H]1C[C@]1(NC(=O)[C@@H]1C[C@@]2(CN1C(=O)[C@@H](NC(=O)[C@@H](NC(=O)[C@@H]1CCCCN1C(C)C)C1CCCCC1)C(C)(C)C)C(C)(C)C21CCC1)C(=O)NS(=O)(=O)N(C)c1ccccc1 [Compound 52, (5R,8S)-7-[(2S)-2-{[(2S)-2-cyclohexyl-2-({[(2S)-1-isopropylpiperidin-2-yl]carbonyl}amino)acetyl]amino}-3,3-dimethylbutanoyl]-10,10-dimethyl-N-[(1R,2S)-1-({[methyl(phenyl)amino]sulfonyl}carbamoyl)-2-vinylcyclopropyl]-7-azadispiro[3.0.4.1]decane-8-carboxamide] | 2.5
5 | C=C[C@@H]1C[C@]1(NC(=O)[C@@H]1C[C@@]2(CN1C(=O)[C@@H](NC(=O)[C@@H](NC(=O)[C@@H]1CCN1C(C)C)C1CCCCC1)C(C)(C)C)C(C)(C)C21CCC1)C(=O)NS(=O)(=O)N1CCCC1 [Compound 17, (5R,8S)-7-[(2S)-2-{[(2S)-2-cyclohexyl-2-({[(2S)-1-isopropylazetidin-2-yl]carbonyl}amino)acetyl]amino}-3,3-dimethylbutanoyl]-10,10-dimethyl-N-{(1R,2S)-1-[(pyrrolidin-1-ylsulfonyl)carbamoyl]-2-vinylcyclopropyl}-7-azadispiro[3.0.4.1]decane-8 carboxamide] | 2.5
6 | C=C[C@@H]1C[C@]1(NC(=O)[C@@H]1C[C@@]2(CN1C(=O)[C@@H](NC(=O)[C@@H](NC(=O)[C@@H]1CCCCN1C(C)C)C1CCCCC1)C(C)(C)C)C(C)(C)C21CCC1)C(=O)NS(=O)(=O)N(C)CCCl [Compound 171, (5R,8S)-N-[(1R,2S)-1-({[(2-chloroethyl)(methyl)amino]sulfonyl}carbamoyl)-2-vinylcyclopropyl]-7-[(2S)-2-{[(2S)-2-cyclohexyl-2-({[(2S)-1-isopropylpiperidin-2-yl]carbonyl}amino)acetyl]amino}-3,3-dimethylbutanoyl]-10,10-dimethyl-7-azadispiro[3.0.4.1]decane-8-carboxamide] | 1
7 | C=C[C@@H]1C[C@]1(NC(=O)[C@@H]1C[C@@]2(CN1C(=O)[C@@H](NC(=O)[C@@H](NC(=O)[C@@H]1CCCCN1C(C)C)C1CCCCC1)C(C)(C)C)C(C)(C)C21CCC1)C(=O)NS(=O)(=O)N(CCOC)C1CC1 [Compound 54, (5R,8S)-7-[(2S)-2-{[(2S)-2-cyclohexyl-2-({[(2S)-1-isopropylpiperidin-2-yl]carbonyl}amino)acetyl]amino}-3,3-dimethylbutanoyl]-N-[(1R,2S)-1-({[cyclopropyl(2-methoxyethyl)amino]sulfonyl}carbamoyl)-2-vinylcyclopropyl]-10,10-dimethyl-7-azadispiro[3.0.4.1]decane-8-carboxamide] | 2.5
8 | C=C[C@@H]1C[C@]1(NC(=O)[C@@H]1C[C@@]2(CN1C(=O)[C@@H](NC(=O)[C@@H](NC(=O)[C@@H]1CCCCN1C(C)C)C1CCCC1)C(C)(C)C)C(C)(C)C21CCC1)C(=O)NS(=O)(=O)N(CC)CC [Compound 79, (5R,8S)-7-[(2S)-2-{[(2S)-2-cyclopentyl-2-({[(2S)-1-isopropylpiperidin-2-yl]carbonyl}amino)acetyl]amino}-3,3-dimethylbutanoyl]-N-[(1R,2S)-1-{[(diethylamino)sulfonyl]carbamoyl}-2-vinylcyclopropyl]-10,10-dimethyl-7-azadispiro[3.0.4.1]decane-8-carboxamide] | 2.5
9 | C=C[C@@H]1C[C@]1(NC(=O)[C@@H]1C[C@@]2(CN1C(=O)[C@@H](NC(=O)[C@@H](NC(=O)[C@@H]1CCCN1CC)C1CCCCC1)C(C)(C)C)C(C)(C)C21CCC1)C(=O)NS(=O)(=O)N(C)C(C)C [Compound 109, (5R,8S)-7-[(2S)-2-{[(2S)-2-cyclohexyl-2-({[(2S)-1-ethylpyrrolidin-2-yl]carbonyl}amino)acetyl]amino}-3,3-dimethylbutanoyl]-N-[(1R,2S)-1-({[isopropyl(methyl)amino]sulfonyl}carbamoyl)-2-vinylcyclopropyl]-10,10-dimethyl-7-azadispiro[3.0.4.1]decane-8-carboxamide] | 2.5
10 | C=C[C@@H]1C[C@]1(NC(=O)[C@@H]1C[C@@]2(CN1C(=O)[C@@H](NC(=O)[C@@H](NC(=O)[C@@H]1CCCCN1C(C)C)C1CCCCC1)C(C)(C)C)C(C)(C)C21CCC1)C(=O)NS(=O)(=O)NC1CC1 [Compound 172, (5R,8S)-7-[(2S)-2-{[(2S)-2-cyclohexyl-2-({[(2S)-1-isopropylpiperidin-2-yl]carbonyl}amino)acetyl]amino}-3,3-dimethylbutanoyl]-N-[(1R,2S)-1-{[(cyclopropylamino)sulfonyl]carbamoyl}-2-vinylcyclopropyl]-10,10-dimethyl-7-azadispiro[3.0.4.1]decane-8-carboxamide] | 2.5
11 | C=C[C@@H]1C[C@]1(NC(=O)[C@@H]1C[C@@]2(CN1C(=O)[C@@H](NC(=O)[C@@H](NC(=O)[C@@H]1CCCN1C1CCCC1)C(C)(C)C)C(C)(C)C)C(C)(C)C21CCC1)C(=O)NS(=O)(=O)N1CCCC1 [Compound 27, (5R,8S)-7-[(2S)-2-{[(2S)-2-({[(2S)-1-cyclopentylpyrrolidin-2-yl]carbonyl}amino)-3,3-dimethylbutanoyl]amino}-3,3-dimethylbutanoyl]-10,10-dimethyl-N-{(1R,2S)-1-[(pyrrolidin-1-ylsulfonyl)carbamoyl]-2-vinylcyclopropyl}-7-azadispiro[3.0.4.1]decane-8-carboxamide] | 10
12 | C=C[C@@H]1C[C@]1(NC(=O)[C@@H]1C[C@@]2(CN1C(=O)[C@@H](NC(=O)[C@@H](NC(=O)c1cnccn1)C1CCCCC1)C(C)(C)C)C(C)(C)C21CCC1)C(=O)NS(=O)(=O)N(C)CCCl [Compound 168, (5R,8S)-N-[(1R,2S)-1-({[(2-chloroethyl)(methyl)amino]sulfonyl}carbamoyl)-2-vinylcyclopropyl]-7-[(2S)-2-({(2S)-2-cyclohexyl-2-[(pyrazin-2-ylcarbonyl)amino]acetyl}amino)-3,3-dimethylbutanoyl]-10,10-dimethyl-7-azadispiro[3.0.4.1]decane-8-carboxamide] | 30
13 | C=C[C@@H]1C[C@]1(NC(=O)[C@@H]1C[C@@]2(CN1C(=O)[C@@H](NC(=O)[C@@H](NC(=O)[C@@H]1CCCCN1C)C1CCCCC1)C(C)(C)C)C(C)(C)C21CCC1)C(=O)NS(=O)(=O)N1CCCC1 [Compound 82, (5R,8S)-7-[(2S)-2-{[(2S)-2-cyclohexyl-2-({[(2S)-1-methylpiperidin-2-yl]carbonyl}amino)acetyl]amino}-3,3-dimethylbutanoyl]-10,10-dimethyl-N-{(1R,2S)-1-[(pyrrolidin-1-ylsulfonyl)carbamoyl]-2-vinylcyclopropyl}-7-azadispiro[3.0.4.1]decane-8-carboxamide] | 2.5
14 | C=C[C@@H]1C[C@]1(NC(=O)[C@@H]1C[C@@]2(CN1C(=O)[C@@H](NC(=O)[C@@H](NC(=O)[C@@H]1CCCCN1C(C)C)C1CCCCC1)C1CCCC1)C(C)(C)C21CCC1)C(=O)NS(=O)(=O)N(CC)CC [Compound 80, (5R,8S)-7-[(2S)-2-{[(2S)-2-cyclohexyl-2-({[(2S)-1-isopropylpiperidin-2-yl]carbonyl}amino)acetyl]amino}-2-cyclopentylacetyl]-N-[(1R,2S)-1-{[(diethylamino)sulfonyl]carbamoyl}-2-vinylcyclopropyl]-10,10-dimethyl-7-azadispiro[3.0.4.1]decane-8-carboxamide] | 2
